From ChEMBL document CHEMBL4725250, “The development of a structurally distinct series of BACE1 inhibitors via the (Z)-fluoro-olefin amide bioisosteric replacement” (Bioorg Med Chem Lett, 2020)

Chains of the proteins cited; added tags and fusions are not shown. Lines headed by an entry give the natural chain unless they say otherwise; changes in a name come on top.
UniProt P56817: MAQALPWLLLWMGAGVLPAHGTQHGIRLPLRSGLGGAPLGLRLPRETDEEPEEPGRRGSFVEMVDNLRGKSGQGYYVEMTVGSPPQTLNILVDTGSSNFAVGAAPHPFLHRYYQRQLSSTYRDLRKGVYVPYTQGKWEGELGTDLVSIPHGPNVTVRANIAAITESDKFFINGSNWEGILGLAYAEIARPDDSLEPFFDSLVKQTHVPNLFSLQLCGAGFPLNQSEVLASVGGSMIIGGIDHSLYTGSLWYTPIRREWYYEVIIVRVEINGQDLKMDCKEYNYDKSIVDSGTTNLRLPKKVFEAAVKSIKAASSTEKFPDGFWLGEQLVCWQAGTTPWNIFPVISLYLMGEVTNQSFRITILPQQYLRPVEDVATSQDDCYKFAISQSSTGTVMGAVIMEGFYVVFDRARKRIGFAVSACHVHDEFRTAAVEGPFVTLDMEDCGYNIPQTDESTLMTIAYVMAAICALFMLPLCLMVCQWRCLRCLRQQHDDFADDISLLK

Tests used:
Beta-secretase 1 [1] = molecular target: T1, Beta-secretase 1 (Homo sapiens, UniProt P56817)
Beta-secretase 1 [2] = molecular target: T1, Beta-secretase 1; remark: listed apart in the source

IC50 (Beta-secretase 1 [1]): 2 nM | IC50 (Beta-secretase 1 [2]): 3 nM
Structure (SMILES): CN(C)C(=O)[C@]12C[C@H]1[C@@](C)(c1cc(/C=C(\F)c3ccc(C#N)cn3)ccc1F)N=C(N)S2
